Experimental data: US20060134801A1, “Methods and compositions involving MDA-7” (Board of Regents, The University of Texas System, priority 2003, published 2006)

Test system: MCF-7-Her-18 tumors
Test: MCF-7-Her-18 mammary fat pad xenograft
Format: in vivo, nude mice
Conditions: vector 2×10^10 vp weekly ×3; Herceptin 110 μg i.p. twice weekly ×3
Protocol: The nude mice were obtained from Charles River Laboratories (Wilmington, Mass.). Estrogen pellets were injected in the posterior cervical region at a dose of 0.5 mg. Two days later, MCF-7-Her-18 cells were injected into the thoracic mammary fat pad at a density of 5×10^6 cells per mouse. […] The viral vectors were injected directly into the tumor at a dose of 2×10^10 viral particles once per week for three weeks. […] The tumor size was measured and recorded twice a week until sacrifice.

## Herceptin: monoclonal antibody that blocks the HER2-neu receptor
  time to tumor doubling: 16 days
